Experimental findings from PubChem BioAssay (EPA / NIEHS) are described below.

Chains of the proteins cited; added tags and fusions are not shown.
UniProt Q07869, whole entry: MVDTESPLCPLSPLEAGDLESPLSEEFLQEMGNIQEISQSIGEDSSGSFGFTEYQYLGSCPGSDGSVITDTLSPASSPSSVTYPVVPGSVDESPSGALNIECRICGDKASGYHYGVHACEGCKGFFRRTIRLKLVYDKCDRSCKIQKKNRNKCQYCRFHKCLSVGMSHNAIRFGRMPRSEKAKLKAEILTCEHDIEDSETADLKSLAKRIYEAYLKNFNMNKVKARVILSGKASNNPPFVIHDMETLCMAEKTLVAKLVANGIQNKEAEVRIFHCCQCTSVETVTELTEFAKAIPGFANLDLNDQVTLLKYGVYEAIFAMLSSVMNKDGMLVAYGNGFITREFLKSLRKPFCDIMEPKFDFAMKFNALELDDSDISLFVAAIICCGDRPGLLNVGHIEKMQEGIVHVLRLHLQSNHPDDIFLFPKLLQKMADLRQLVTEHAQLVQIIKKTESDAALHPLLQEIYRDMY
UniProt Q03181, whole entry: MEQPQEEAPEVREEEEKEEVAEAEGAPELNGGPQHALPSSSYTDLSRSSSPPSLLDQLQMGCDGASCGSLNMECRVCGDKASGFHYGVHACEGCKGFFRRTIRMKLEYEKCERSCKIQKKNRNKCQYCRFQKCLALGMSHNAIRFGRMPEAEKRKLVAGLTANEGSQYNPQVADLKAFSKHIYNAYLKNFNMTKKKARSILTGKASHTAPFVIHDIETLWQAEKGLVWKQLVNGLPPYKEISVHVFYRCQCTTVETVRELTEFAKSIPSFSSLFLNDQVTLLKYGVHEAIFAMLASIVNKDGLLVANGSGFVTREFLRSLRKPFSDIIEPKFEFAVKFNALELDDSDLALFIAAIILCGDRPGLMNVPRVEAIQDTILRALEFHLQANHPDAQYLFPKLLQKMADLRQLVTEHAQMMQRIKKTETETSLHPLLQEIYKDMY
UniProt O75469, whole entry: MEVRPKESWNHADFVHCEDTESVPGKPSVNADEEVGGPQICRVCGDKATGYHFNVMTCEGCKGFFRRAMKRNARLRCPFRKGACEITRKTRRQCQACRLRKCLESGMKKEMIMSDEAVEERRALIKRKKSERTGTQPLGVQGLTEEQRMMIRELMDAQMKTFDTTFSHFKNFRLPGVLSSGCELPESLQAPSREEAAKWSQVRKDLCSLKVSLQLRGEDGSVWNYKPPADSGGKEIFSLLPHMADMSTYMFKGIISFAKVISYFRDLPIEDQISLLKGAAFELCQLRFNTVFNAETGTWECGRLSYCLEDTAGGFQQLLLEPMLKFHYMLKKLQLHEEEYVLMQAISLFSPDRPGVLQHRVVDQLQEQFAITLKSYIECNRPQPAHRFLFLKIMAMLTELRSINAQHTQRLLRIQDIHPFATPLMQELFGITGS
UniProt P13631, whole entry: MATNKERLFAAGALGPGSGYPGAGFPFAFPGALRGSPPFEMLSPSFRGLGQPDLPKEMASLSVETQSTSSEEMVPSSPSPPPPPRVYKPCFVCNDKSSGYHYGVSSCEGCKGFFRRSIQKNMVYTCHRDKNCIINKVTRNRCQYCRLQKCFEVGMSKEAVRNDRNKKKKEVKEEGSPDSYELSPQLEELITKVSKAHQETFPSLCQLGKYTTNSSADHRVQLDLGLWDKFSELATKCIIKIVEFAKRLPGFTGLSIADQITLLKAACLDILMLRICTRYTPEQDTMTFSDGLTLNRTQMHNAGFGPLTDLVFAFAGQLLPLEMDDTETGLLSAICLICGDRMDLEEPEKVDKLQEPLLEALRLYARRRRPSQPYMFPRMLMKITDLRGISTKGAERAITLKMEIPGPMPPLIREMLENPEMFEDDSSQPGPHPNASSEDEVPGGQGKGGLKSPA

Structures are written as SMILES. The list shows a part of the results, in another mix than the full data. Results filed as inconclusive are left out. Activity calls are given as the source filed them. How the source made its calls: active means hit-call score of the fitted dose curve at least 0.9, where 1 is the maximum; inconclusive means response in the unintended direction; inactive means score below 0.9.

The first assay addresses human Peroxisome Proliferator-activated Receptor alpha (PPARa), PPARA (gene 5465) (UniProt Q07869). Description: ATG_PPARa_TRANS: Attagene TRANS-FACTORIAL HepG2 Assay for human Peroxisome Proliferator-activated Receptor alpha (PPARa) (AID 2283001). The method, boiled down: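 Measures transcriptional activity of an exogenous chimeric PPARa-Gal4 protein in transiently transfected HepG2 cells after 24 h dosing. Reporter mRNA quantified via RT-PCR and capillary electrophoresis; DMSO served as negative control.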
Turning to `CC(C)OP(OC(C)C)OC(C)C`, the molecule was called inactive.

Regarding `O=[N+]([O-])c1ccccc1[N+](=O)[O-]`, the call was inactive.

Take `CCOP(=O)(Cl)Cl`: the outcome was inactive.

Another assay addresses human Peroxisome Proliferator-activated Receptor delta (PPARd), PPARD (gene 5467) (UniProt Q03181). Description: ATG_PPARd_TRANS: Attagene TRANS-FACTORIAL HepG2 Assay for human Peroxisome Proliferator-activated Receptor delta (PPARd) (AID 2283002). As to the method:
ATG_TRANS is a cell-based, multiplexed-readout assay that uses HepG2, a human liver cell line, with measurements taken at 24 hours after chemical dosing in a 24-well plate.ATG_PPARd_TRANS is one of 30 assay component(s) measured or calculated from the ATG_TRANS assay. It is designed to make measurements of mRNA induction, a form of inducible reporter, as detected with fluorescence intensity signals by Reverse transcription polymerase chain reaction (RT-PCR) and Capillary electrophoresis technology.Data from the assay component ATG_PPARd_TRANS was analyzed into 1 assay endpoint. This assay endpoint, ATG_PPARd_TRANS, was analyzed in the positive analysis fitting direction relative to DMSO as the negative control and baseline of activity. Using a type of inducible reporter, measures of mRNA for gain-of-signal activity can be used to understand the reporter gene at the transcription factor-level as they relate to the gene PPARD. Furthermore, this assay endpoint can be referred to as a primary readout, because this assay has produced multiple assay endpoints where this one serves a reporter gene function. To generalize the intended target to other relatable targets, this assay endpoint is annotated to the nuclear receptor intended target family, where the subfamily is non-steroidal.
Human liver HepG2 cells are transiently transfected with multiple reporter transcription units (MRTUs) in 6-well plates using FuGene 6 reagent (Roche; 3 ml FuGene/1 mg DNA). The MRTU constructs are regulated by a cis-regulating element (promoter). […] A major difference between the CIS and TRANS system is that in CIS activities of endogenous TFs are measured, whereas the TRANS assay evaluates changes in activities of exogenous, chimeric NR-Gal4 proteins. […] The fragments were purified using Qiaquick PCR columns (Qiagen), analyzed on an ABI 3130xL genetic analyzer (Applied Biosystems) with peak positions identified by using a set of X-rhodamine (ROX)-labeled MapMarker1000 molecular weight standards (BioVentures). […]
With `CC(C)OP(OC(C)C)OC(C)C`, the call was inactive.

Turning to `O=[N+]([O-])c1ccccc1[N+](=O)[O-]`, the call was inactive.

Turning to `ClCCNCCCl`, the outcome was inactive.

In the next assay the target is Nuclear receptor subfamily 1 group I member 2 (Homo sapiens) (UniProt O75469). Description: ATG_PXR_TRANS: Attagene TRANS-FACTORIAL HepG2 Assay for human Pregnane X Receptor (PXR) (AID 2283008). The method, boiled down:
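HepG2 cells transiently transfected with GAL4-UAS reporter units and PXR-Gal4 chimera, exposed 24 h. Reporter mRNA quantified by RT-PCR, fluorescent labelling, HpaI digestion and capillary electrophoresis; gain of signal vs DMSO.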
Take `ClCCOP(OCCCl)OCCCl`: the molecule was classed as inactive.

Consider `CC(C)OP(OC(C)C)OC(C)C`, for which the outcome was inactive.

Turning to `O=[N+]([O-])c1ccccc1[N+](=O)[O-]`, the outcome was inactive.

The next assay deals with human Retinoic Acid Receptor gamma (RARg), RARG (gene 5916) (UniProt P13631). The experiment in a line: ATG_RARg_TRANS: Attagene TRANS-FACTORIAL HepG2 Assay for human Retinoic Acid Receptor gamma (RARg) (AID 2283009). A digest of the protocol:
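HepG2 cells transiently transfected with multiplexed reporter units expressing chimeric RARg-GAL4 and GAL4-UAS-driven reporters; 24 h compound exposure. Reporter mRNA quantified by RT-PCR with fluorescent labelling and capillary electrophoresis; gain-of-signal fitted relative to DMSO baseline.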
Take `CC(C)OP(OC(C)C)OC(C)C`: the molecule was called inactive.

With `O=[N+]([O-])c1ccccc1[N+](=O)[O-]`, the call was inactive.

For `ClCCNCCCl`, the call was inactive.
